Measured values published in publication PMC11671526, “β-caryophyllene sensitizes hepatocellular carcinoma cells to chemotherapeutics and inhibits cell malignancy through targeting MAPK signaling pathway” (Frontiers in Pharmacology, 2024).

System: HL-7702 normal liver cells
Experiment: CCK8 cell viability assay
Format: cell-based, human
Protocol: Cell viability assay using the CCK8 reagent (Bimake, Shanghai, China) was conducted according to the manufacturer’s instructions. The cell proliferation data were used to calculate the cell viability. Briefly, HepG2, SMMC-7721, and HL-7702 cells with a density of 5 × 10^3 cells/well were seeded into each well of 96-well plates and incubated overnight. BCP stock solution (400 mM) was prepared in ethanol, and DOX and DDP stock solutions (20 mM) were individually prepared in DMSO. […] The dosages of DOX and DDP were previously determined ([Jehan et al., 2020]; [Farooq et al., 2023]). […] After 48 h, 10 µL of CCK8 reagent was added to each well, followed by 2 h incubation at 37°C and measurement of absorbance at 450 nm using a microplate reader (Molecular Devices, LLC.). […] The antiproliferative effects of BCP in combination with DOX and DDP were evaluated by the combination index (CI) using the formula: […] The effects of the combinatorial inhibition were visualized by isobologram analyses ([Tallarida, 2001]). The IC50 values of each cell line were arranged for the isobologram analysis so that the IC50 of DOX represents a point on the X-axis and the IC50 of BCP represents a point on the Y-axis. A line was drawn to link the two IC50 points. Each dot in the isobologram represented an IC50 value of a BCP and DOX combination. The dots above, on, or below the line indicate the “antagonistic,” “additive” and “synergistic” effects, respectively. The same method was used to obtain the CI value for the cotreatment of BCP and DDP.

COc1cccc2c1C(=O)c1c(O)c3c(c(O)c1C2=O)C[C@@](O)(C(=O)CO)C[C@@H]3O[C@H]1C[C@H](N)[C@H](O)[C@H](C)O1 [DOX, doxorubicin]
combination index (CI) (HL-7702, cotreatment with 25 μM BCP): 1.02 | combination index (CI) (HL-7702, cotreatment with 50 μM BCP): 0.98 | combination index (CI) (HL-7702, cotreatment with 100 μM BCP): 1.03 | combination index (CI) (HL-7702, cotreatment with 150 μM BCP): 1.05
